According to patent US20210292438A1, “CONDITIONAL INTERNALIZATION OF PEGYLATED AGENTS BY PRETARGETING BI-SPECIFIC PEG-BINDING ANTIBODIES FOR DIAGNOSIS AND THERAPY” (ACADEMIA SINICA, priority 2017, published 2021):

Test system: EGF-induced phosphorylation of EGFR and Erk in A431 cells
Assay: EGFR signaling, western blot of phospho-EGFR and phospho-ERK
Type: cell-based
Conditions: 50 nM, 5 nM EGF
Procedure: To investigate whether PEG engager^EGFR can inhibit EGFR signaling, EGFR-positive A431 cells were untreated or stimulated with 5 nM EGF and then co-incubated with PEG engagers or control antibodies. Phosphorylation of EGFR and Erk were detected by western blotting using anti-phospho EGFR or anti-phospho ERK antibodies. Total EGFR and tubulin served as loading controls.

Row | Substance | inhibition of EGF-induced phosphorylation of EGFR and Erk
1 | Erbitux: monoclonal anti-EGFR IgG | inhibited
2 | Herceptin: negative control antibody, anti-HER2 IgG | did not inhibit
